Reference: US20050148586A1 (priority 2004, published 2005)

The chains behind the UniProt entries cited, without tags or fusion partners. Residues count along the entry.
UniProt P00489, 2-843 limits assumed: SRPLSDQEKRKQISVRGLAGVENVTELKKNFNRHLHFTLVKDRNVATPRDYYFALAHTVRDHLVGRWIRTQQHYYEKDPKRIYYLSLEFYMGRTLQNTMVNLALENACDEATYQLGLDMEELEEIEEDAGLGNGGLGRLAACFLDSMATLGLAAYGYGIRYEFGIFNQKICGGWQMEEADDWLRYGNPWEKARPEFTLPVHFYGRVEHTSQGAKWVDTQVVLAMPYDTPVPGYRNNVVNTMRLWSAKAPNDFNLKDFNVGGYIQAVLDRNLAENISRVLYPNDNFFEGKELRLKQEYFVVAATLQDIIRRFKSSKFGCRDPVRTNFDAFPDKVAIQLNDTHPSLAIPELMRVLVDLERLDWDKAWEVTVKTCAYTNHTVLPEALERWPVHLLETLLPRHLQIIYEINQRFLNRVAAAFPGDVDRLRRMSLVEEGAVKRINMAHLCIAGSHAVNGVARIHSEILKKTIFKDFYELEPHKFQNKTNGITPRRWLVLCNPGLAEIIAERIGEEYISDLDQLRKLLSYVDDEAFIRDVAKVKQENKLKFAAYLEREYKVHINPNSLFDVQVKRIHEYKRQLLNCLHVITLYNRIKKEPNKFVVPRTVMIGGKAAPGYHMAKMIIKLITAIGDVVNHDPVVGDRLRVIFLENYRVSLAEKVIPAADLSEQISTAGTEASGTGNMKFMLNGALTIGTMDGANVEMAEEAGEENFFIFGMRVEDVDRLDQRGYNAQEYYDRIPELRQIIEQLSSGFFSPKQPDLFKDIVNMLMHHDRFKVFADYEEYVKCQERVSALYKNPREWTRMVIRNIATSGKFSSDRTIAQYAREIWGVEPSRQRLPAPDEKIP

Target: glycogen phosphorylase (from rabbit muscle, Sigma P1261) (Oryctolagus cuniculus, UniProt P00489)
Assay: Enzyme Inhibition Assay (malachite green phosphate readout)
Type: biochemical

IC50 (+/−.05): 5 µM
% inhibition (@ 20 μM test compound, percent inhibition (±10%) of enzymatic activity): 40% @ 20 μM
Structure (SMILES): Cn1c(=O)c(Nc2ccc(-c3ccoc3)cc2)nc2ccccc21
